Sampled rows, rich in hits. Any-hit rate of the full collection: about 1.5%.
MLLE-PAM2 inh: inhibitors of PABP1 MLLE–PAM2 peptide binding, primary screen, biochemical, fluorescence polarization, FITC-PAM2, GST-MLLE; actives 0.36% (n = 360,000); inhibition, % at 20 µM; AID 588489, 2011; in the data active = inhibition above about 35%, passing the limit was not always enough;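 note: plate controls were DMSO wells with GST-MLLE for no effect and wells lacking GST-MLLE protein for full effect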
eIF4H inh: human eIF4H binding inhibitors, primary screen, translation initiation inhibitor project, biochemical, uHTS, fluorescence polarization; inhibition, % at 35 µM; actives 0.94% (n = 290,000); Eukaryotic translation initiation factor 4H (Homo sapiens), Q15056; eIF4H fluorescence polarization binding assay;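 note: calls also rest on retests at 20 µM and on dose response follow-up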
DSG3 Ab inh: inhibitors of pemphigus antibody binding to DSG3, primary screen, biochemical, bead-based, flow cytometry, scFv-GFP. actives 0.48% (n = 310,000). binding (percent of control), % at 10 µM. DSG3-coupled beads, scFv-anti-DSG3-GFP binding; stronger effect = lower value. AID 588358, 2011. Desmoglein-3 (Homo sapiens), P32926;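 active = binding more than 3 SD below its plate's average and above zero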;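 note: hits lower antibody fragment binding to DSG3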
UUG fidelity: alters start codon recognition fidelity in yeast. S. cerevisiae UUG-firefly luciferase reporter, luminescence/redox ratio. 350,000 tested, 0.13% active. activity score, % at 18.7 µM. AID 602363;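 active means replicate mean at a twofold rise or more, about +100% in these data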;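 further: firefly luciferase made from a UUG start codon reports start codon fidelity; reporter light over untreated wells divided by growth signal over untreated wells; some hits fall short of that in this replicate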
PABP polyA inh: PABP poly(A) RNA binding inhibitors, primary screen, biochemical, fluorescence polarization, uHTS | Polyadenylate-binding protein 1 (Homo sapiens), P11940 | calls only at 35 µM | actives 1% (n = 290,000);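 note: calls also rest on retests at 20 µM and on dose response follow-up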
The depositor's hits bear a star. Unless noted, the rule behind the calls is not given here.

Sequences of proteins named here, by UniProt entry; tags and fusion partners are left off.
Desmoglein-3 (Homo sapiens), P32926, UniProt P32926, whole entry, looked up: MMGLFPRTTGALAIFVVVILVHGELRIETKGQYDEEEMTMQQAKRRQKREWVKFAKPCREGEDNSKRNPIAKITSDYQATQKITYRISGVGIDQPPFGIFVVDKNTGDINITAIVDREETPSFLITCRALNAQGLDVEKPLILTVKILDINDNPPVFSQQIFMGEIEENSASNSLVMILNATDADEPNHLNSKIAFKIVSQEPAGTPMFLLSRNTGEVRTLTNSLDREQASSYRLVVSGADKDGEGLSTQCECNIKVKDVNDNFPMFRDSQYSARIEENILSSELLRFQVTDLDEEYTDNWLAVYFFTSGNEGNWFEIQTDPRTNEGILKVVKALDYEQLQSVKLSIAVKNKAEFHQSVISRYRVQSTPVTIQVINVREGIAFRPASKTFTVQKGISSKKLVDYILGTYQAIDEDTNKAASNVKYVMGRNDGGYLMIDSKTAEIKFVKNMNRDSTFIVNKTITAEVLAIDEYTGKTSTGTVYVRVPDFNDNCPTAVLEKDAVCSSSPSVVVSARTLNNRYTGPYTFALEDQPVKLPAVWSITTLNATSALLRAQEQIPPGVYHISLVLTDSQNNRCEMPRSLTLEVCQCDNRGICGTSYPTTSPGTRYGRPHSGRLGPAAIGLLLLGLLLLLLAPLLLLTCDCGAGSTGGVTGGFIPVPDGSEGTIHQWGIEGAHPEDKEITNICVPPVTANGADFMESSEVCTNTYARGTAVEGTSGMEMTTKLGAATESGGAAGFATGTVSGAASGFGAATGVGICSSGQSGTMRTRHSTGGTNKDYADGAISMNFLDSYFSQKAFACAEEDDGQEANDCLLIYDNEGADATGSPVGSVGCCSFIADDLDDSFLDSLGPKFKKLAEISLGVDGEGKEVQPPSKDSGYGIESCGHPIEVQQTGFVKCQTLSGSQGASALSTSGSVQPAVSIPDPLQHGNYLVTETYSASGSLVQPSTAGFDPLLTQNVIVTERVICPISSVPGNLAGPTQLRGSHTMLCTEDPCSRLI
Polyadenylate-binding protein 1 (Homo sapiens), P11940, UniProt P11940, whole entry, looked up: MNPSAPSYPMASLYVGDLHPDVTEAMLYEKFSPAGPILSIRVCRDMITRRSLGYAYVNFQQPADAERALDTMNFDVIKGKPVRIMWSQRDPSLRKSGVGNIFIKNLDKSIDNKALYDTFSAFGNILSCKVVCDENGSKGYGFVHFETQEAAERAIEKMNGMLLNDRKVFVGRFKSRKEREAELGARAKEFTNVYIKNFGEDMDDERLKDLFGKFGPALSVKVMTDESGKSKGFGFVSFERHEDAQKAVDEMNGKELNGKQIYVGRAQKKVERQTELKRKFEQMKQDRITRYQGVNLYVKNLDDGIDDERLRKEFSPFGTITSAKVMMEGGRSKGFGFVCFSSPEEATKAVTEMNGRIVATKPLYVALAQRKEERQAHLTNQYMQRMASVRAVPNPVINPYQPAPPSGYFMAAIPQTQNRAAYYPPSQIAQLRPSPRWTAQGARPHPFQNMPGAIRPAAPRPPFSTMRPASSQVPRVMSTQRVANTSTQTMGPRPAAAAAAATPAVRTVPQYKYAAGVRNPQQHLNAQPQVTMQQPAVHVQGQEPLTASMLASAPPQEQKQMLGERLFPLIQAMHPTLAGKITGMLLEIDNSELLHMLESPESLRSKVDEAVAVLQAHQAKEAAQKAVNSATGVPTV

Screening CC(Sc1nnc(NC(=O)c2cc3ccccc3oc2=O)s1)c1ccccc1 (configuration not stated) returned MLLE-PAM2 inh -12.7, eIF4H inh -2.3, DSG3 Ab inh 71.7*, UUG fidelity -11.7 and PABP polyA inh inactive.
For CCCc1nnc(NC(=O)c2cc3ccccc3oc2=O)s1 the results were MLLE-PAM2 inh -6.1, eIF4H inh -1.2, DSG3 Ab inh 113.4, UUG fidelity -8.8 and PABP polyA inh inactive.
`CCCC(=O)Nc1ccc2c(c1)OC[C@H](C)N(Cc1ccc(-c3ccccn3)cc1)C[C@@H](C)[C@H](OC)CN(C)C2=O` gave UUG fidelity 23.6.
`COc1ccc(C(=O)N/C(=C/c2ccco2)C(=O)N2CCCCCC2)cc1` gave MLLE-PAM2 inh -37.3, eIF4H inh 53.4, UUG fidelity 3.9 and PABP polyA inh active.
O=C(N/C(=C/c1ccco1)C(=O)N1CCCCCC1)c1ccccc1 was read as MLLE-PAM2 inh 3.8, eIF4H inh 3.3, UUG fidelity -9.7 and PABP polyA inh inactive.
Cc1ccc(C(=O)N/C(=C/c2ccco2)C(=O)OCN2C(=O)c3ccccc3C2=O)cc1 was read as MLLE-PAM2 inh 9.3, eIF4H inh 79.3*, DSG3 Ab inh 100.2 and PABP polyA inh inactive.
For O=C(N/C(=C/c1ccco1)C(=O)N1CCCCCC1)c1cccs1 the results were MLLE-PAM2 inh -7.3, eIF4H inh 62.0, DSG3 Ab inh 113.2, UUG fidelity 28.4 and PABP polyA inh active.
COC(=O)/C(=C/c1ccco1)NC(=O)c1ccccc1 was read as MLLE-PAM2 inh 4.3, eIF4H inh 16.8, DSG3 Ab inh 101.8 and PABP polyA inh inactive.
Screening C[C@H]1CN([C@@H](C)CO)C(=O)c2cc(-c3cccc(F)c3)cnc2O[C@H]1CN(C)CC1CCOCC1 returned UUG fidelity 1.9.
C[C@@H]1CN([C@@H](C)CO)C(=O)c2cc(-c3ccc(F)cc3)cnc2O[C@@H]1CN(C)C(=O)c1ccccc1F was read as UUG fidelity -7.7.
`COc1ccc(N2CCN(C(=O)COCc3cc(-c4ccc5c(c4)OCO5)on3)CC2)cc1` gave MLLE-PAM2 inh 1.3, eIF4H inh -3.8, DSG3 Ab inh 71.3*, UUG fidelity -11.2 and PABP polyA inh inactive.
Screening C[C@@H]1CN([C@@H](C)CO)C(=O)c2cc(NC(=O)Cc3ccccc3)ccc2O[C@@H](C)CCCCO[C@@H]1CN(C)S(=O)(=O)c1cn(C)cn1 returned UUG fidelity 9.3.
`CC(NC(=O)CSC1=NCCS1)c1ccccc1` (configuration not stated) gave MLLE-PAM2 inh 45.7*, eIF4H inh -11.9, DSG3 Ab inh 111.9 and PABP polyA inh inactive.
Screening O=C(CSC1=NCCS1)Nc1ccccc1F returned MLLE-PAM2 inh 42.8*, eIF4H inh -0.7, DSG3 Ab inh 109.3, UUG fidelity -6.2 and PABP polyA inh inactive.
For COc1ccccc1CNC(=O)CSC1=NCCS1 the results were MLLE-PAM2 inh 41.2*, eIF4H inh -7.5, DSG3 Ab inh 103.9, UUG fidelity 0.1 and PABP polyA inh inactive.
`O=C(CSC1=NCCS1)Nc1cccc2ccccc12` gave MLLE-PAM2 inh 35.1, eIF4H inh -11.1, DSG3 Ab inh 107.8, UUG fidelity 3.9 and PABP polyA inh inactive.
`O=C(C[C@H]1CC[C@H](NC(=O)c2ccncc2)[C@H](CO)O1)NCCc1ccncc1` gave UUG fidelity -2.1.
For CN(C)C(=O)c1cccc(-c2ccc3c(c2)[C@@H]2[C@@H](CCN2C(=O)C2CCOCC2)[C@H](CO)N3)c1 the results were UUG fidelity 4.6.
`O=C(O)c1ccc(C2SCC(=O)N2Cc2ccco2)cc1` (configuration not stated) gave MLLE-PAM2 inh 5.2, eIF4H inh -3.4, DSG3 Ab inh 98.9, UUG fidelity -3.2 and PABP polyA inh inactive.
Screening O=C1CSC(c2ccncc2)N1Cc1ccco1 (configuration not stated) returned MLLE-PAM2 inh 22.8, eIF4H inh 10.7, DSG3 Ab inh 80.1*, UUG fidelity -4.2 and PABP polyA inh inactive.

4 compounds picked at random from those above:
For COc1ccccc1CNC(=O)CSC1=NCCS1 the results were MLLE-PAM2 inh 41.2*, eIF4H inh -7.5, DSG3 Ab inh 103.9, UUG fidelity 0.1 and PABP polyA inh inactive.
O=C(N/C(=C/c1ccco1)C(=O)N1CCCCCC1)c1ccccc1 was read as MLLE-PAM2 inh 3.8, eIF4H inh 3.3, UUG fidelity -9.7 and PABP polyA inh inactive.
For CCCc1nnc(NC(=O)c2cc3ccccc3oc2=O)s1 the results were MLLE-PAM2 inh -6.1, eIF4H inh -1.2, DSG3 Ab inh 113.4, UUG fidelity -8.8 and PABP polyA inh inactive.
Screening O=C(CSC1=NCCS1)Nc1ccccc1F returned MLLE-PAM2 inh 42.8*, eIF4H inh -0.7, DSG3 Ab inh 109.3, UUG fidelity -6.2 and PABP polyA inh inactive.

Next structures
Screening C[C@H](CO)N1C[C@H](C)[C@@H](CN(C)C(=O)Nc2ccc(F)cc2)Oc2c(NS(=O)(=O)c3ccc(F)cc3)cccc2C1=O returned UUG fidelity 5.7.
`C[C@H](CO)N1C[C@H](C)[C@H](CN(C)Cc2ccc3c(c2)OCO3)Oc2ccc(NS(=O)(=O)c3ccc(F)cc3)cc2C1=O` gave UUG fidelity 3.5.
`C[C@H](CO)N1C[C@H](C)[C@H](CN(C)Cc2ccc3c(c2)OCO3)Oc2ccc(N(C)C)cc2C1=O` gave UUG fidelity 1.2.
For c1ccc(-c2nnc(-c3ccco3)o2)cc1 the results were MLLE-PAM2 inh 6.9, eIF4H inh -6.0, DSG3 Ab inh 108.8, UUG fidelity -10.9 and PABP polyA inh inactive.
c1coc(-c2nnc(-c3ccco3)nn2)c1 was read as MLLE-PAM2 inh 38.2*, eIF4H inh 99.1*, DSG3 Ab inh 96.8, UUG fidelity -8.1 and PABP polyA inh active.
For Cc1ccc(S(=O)(=O)Nc2ccc3c(c2)CC(=O)N([C@@H](C)CO)C[C@@H](C)[C@H](CN(C)Cc2ccc(Cl)c(Cl)c2)O3)cc1 the results were UUG fidelity 9.1.
`CCN(CC(=O)NCc1ccc(Cl)cc1)C(=O)CNS(=O)(=O)c1ccc(NC(C)=O)cc1` gave MLLE-PAM2 inh 40.9*, eIF4H inh 4.3, DSG3 Ab inh 102.8, UUG fidelity -8.7 and PABP polyA inh inactive.
Screening CC(=O)Nc1ccc(S(=O)(=O)NCc2ccc(C(=O)NCc3ccc(Cl)cc3)cc2)cc1 returned MLLE-PAM2 inh -21.1, eIF4H inh -4.9, DSG3 Ab inh 90.3, UUG fidelity -11.0 and PABP polyA inh inactive.
For CCN(CC(=O)NCc1ccc(Cl)cc1)C(=O)NCc1ccc(Cl)cc1 the results were MLLE-PAM2 inh -1.6, eIF4H inh -14.1, UUG fidelity -12.8 and PABP polyA inh inactive.
CCN(CC(=O)NCc1ccc(Cl)cc1)CC(=O)Nc1ccc(C(N)=O)cc1 was read as MLLE-PAM2 inh 0.8, eIF4H inh 0.4*, DSG3 Ab inh 115.6 and PABP polyA inh inactive.
`CCOC(=O)c1c(-c2ccco2)csc1NC(=O)CSc1nnc(N)s1` gave MLLE-PAM2 inh -8.2, eIF4H inh 53.9*, DSG3 Ab inh 99.0, UUG fidelity -14.3 and PABP polyA inh inactive.
`CCOC(=O)c1c(-c2ccc(C)o2)csc1NC(=O)CSc1nncs1` gave MLLE-PAM2 inh 37.9, eIF4H inh 27.8, DSG3 Ab inh 104.6, UUG fidelity -18.2 and PABP polyA inh inactive.

Screening data as filed in PubChem.
